Assay outcomes (PubChem)
DT40 TDP1 CPT – DT40-hTDP1 cell growth loss with CPT | chicken DT40 Tdp1-/-;hTDP1 cells + 20 nM CPT, ATP luminescence, 48 h | Potency, µM (top dose mostly 46.2 µM), for the others: top-dose activity change, negative = growth inhibition, actives largely listed as inhibitors | 420,000 compounds, 12% hits | AID 686979; note: potency is the fitted concentration of half-maximal effect; % is set by controls: 0 for no effect and ±100 for the full control effect; nearly all actives have a fitted effect of over 55% in size
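Chicken DT40 Tdp1-/- cells stably complemented with human TDP1 were seeded at 400 cells/well in medium containing 20 nM camptothecin, exposed to pin-transferred compounds, and grown at 37 °C for at least 48 hr. Viability was read as ATP luminescence.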
uPA surface inh – blocks generation of uPA at the cell surface | cell surface uPA generation assay, qHTS | Potency, µM (top dose mostly 38.3 µM), without a hit: top-dose activity change, negative = inhibition, usual class: inhibitors | 330,000 compounds, 0.31% hits; active = well fitted inhibition curve with a large enough effect; inconclusive = small, poorly fitted or top-dose-only effect; inactive = no such curve, though single readings can be large or run the other way; tested in mouse RAW 264.7 cells; note: potency is the fitted concentration of half-maximal effect; % is set by controls: 0 for no effect and ±100 for the full control effect; nearly all actives have a fitted effect of over 55% in size
miR-21 reporter – raises the signal of a miR-21 reporter | AID 2288 | 340,000 tested, under 10 active | Potency, µM (series often up to 38.3 µM), without a hit: at the highest dose reporter change, positive = more light | HeLa miR-21 FLuc reporter, luciferase, 48 h; active = well fitted rising curve with a large enough effect; inconclusive = small, poorly fitted or top-dose-only effect; inactive = no such curve, though single readings can be large or run the other way;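 further: % of control where 0% means no effect; miR-21 action dims this reporter so a rising signal means less miR-21 action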
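Compounds were titrated across several concentrations (up to approximately 40 uM) and incubated 48 hours with HeLa miR-21-FLuc reporter cells (miR-21 target sequence downstream of FLuc, endogenous miR-21). Readout was firefly luciferase luminescence after lytic detection reagent.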
TDP1 inh – inhibitors of human tyrosyl-DNA phosphodiesterase TDP1; Q9NUW8; recombinant TDP1, AlphaScreen DNA substrate cleavage; Potency, µM (top dose mostly 130 µM), for the others: top-dose activity change, negative = inhibition, most hits filed as inhibitors; 350,000 compounds, 0.28% hits; note: potency is the fitted concentration of half-maximal effect; % is set by controls: 0 for no effect and ±100 for the full control effect; nearly all actives have a fitted effect of over 40% in size
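Here, a 5' biotin and 3' phosphotyrosine-FITC DNA oligonucleotide reports Tdp1 activity: intact substrate bridges AlphaScreen beads, while cleavage leaves a 3' phosphate and drops signal. All incubations at room temperature.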
TDP1 cell noCPT – qHTS for Inhibitors of human tyrosyl-DNA phosphodiesterase 1 (TDP1): qHTS in cells in absence of CPT; 420,000 compounds, 15% hits; AID 686978, 2013; DT40 Tdp1-/- hTDP1 cells, no CPT, ATP luminescence, 48 h; Potency, µM (highest dose often 46.2 µM), for the others: at the top dose activity change, negative = growth inhibition, actives largely listed as inhibitors; note: potency is the fitted concentration of half-maximal effect; % is set by controls: 0 for no effect and ±100 for the full control effect; nearly all actives have a fitted effect of over 55% in size
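Cells were dispensed at 400 per well, compounds added by pin tool, plates incubated ≥48 hr at 37 °C, then CellTiter-Glo added for 30 min at room temperature before luminescence reading. Line: DT40 Tdp1-/- complemented with hTDP1; camptothecin omitted.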
* = called active by the depositor; u = inconclusive; x = no result; [ ] = dose if it differs, or a comment. Most compounds without a hit are left out; they make up all but 16% or so of the library. Unless noted, calls come from the whole dose curve; as a rule, active = well fitted curve in the direction sought with a large enough effect; inconclusive = small, poorly fitted or top-dose-only effect, or another doubt; inactive = no such curve, though single readings can be large; an effect the other way counts as inactive or inconclusive.

no.	SMILES	DT40 TDP1 CPT	uPA surface inh	miR-21 reporter
1	Cc1sc2ncn(CC(=O)N3CCN(c4ccccc4)CC3)c(=O)c2c1S(=O)(=O)N1CCC(C)CC1	u	x	18%
2	Cc1sc2ncn(CC(=O)N3CCN(c4ccc(F)cc4)CC3)c(=O)c2c1S(=O)(=O)N1CCC(C)CC1	u	x	25%
3	CCc1nc(Nc2ccccc2F)c2oc3ccccc3c2n1	u	-11%	-16%
4	Cc1ccc(C)c(CN2C(=O)c3ccccc3Sc3ccc(C(=O)NC4CCCC4)cc32)c1	4%	x	-4%
5	N/C(=N\NC(=O)Nc1ccc(Cl)cc1)c1ccccn1	4%	9%	-68%
6	C=CCc1ccccc1OCc1nc2ccccc2n1CC	u	x	-2%
7	CCn1c(COc2ccccc2C)nc2ccccc21	u	-6%	-71%
8	CNC(=O)CNC(=O)Nc1ccc(Cl)c(Cl)c1	8%	-8%	0%
9	Cc1nn(C)c(Oc2cccc(Cl)c2)c1C#N	u	-44%	-1%
10	CC(C)Oc1ccc(CCN=C(N)N=C(N)N)cc1Cl	10µM*	-8%	-47%
11	COc1ccc(N2CCN(C3CCCN(Cc4cccc(C(C)=O)c4)C3)CC2)cc1 (configuration not stated)	-22%	1%	11%
12	Cc1ccc2c(CC(=O)Nc3ccc(S(=O)(=O)N4CCCCC4)cc3)coc2c1	u	x	-6%
13	Cc1cc(C)c2c(CC(=O)Nc3ccc(S(=O)(=O)N4CCCCC4)cc3)coc2c1	21µM*	x	12%
14	Cc1ccc2c(CC(=O)Nc3ccc(S(=O)(=O)N4CCCCC4)cc3)coc2c1C	13µM*	x	3%
15	Cc1ccc(S(=O)(=O)N2CCCCC2)cc1	-1%	-8%	-7%

no.	TDP1 inh	TDP1 cell noCPT
1	12%	23µM*
2	3%	u
3	x	u
4	5%	u
5	6%	-6%
6	-6%	23µM*
7	2%	u
8	8%	5%
9	2%	23µM*
10	0%	12µM*
11	x	-2%
12	4%	u
13	-2%	10µM*
14	4%	15µM*
15	x	2%

Retrieved by compound from the entries so far (4):
no.	SMILES	DT40 TDP1 CPT	uPA surface inh	miR-21 reporter
13	Cc1cc(C)c2c(CC(=O)Nc3ccc(S(=O)(=O)N4CCCCC4)cc3)coc2c1	21µM*	x	12%
8	CNC(=O)CNC(=O)Nc1ccc(Cl)c(Cl)c1	8%	-8%	0%
2	Cc1sc2ncn(CC(=O)N3CCN(c4ccc(F)cc4)CC3)c(=O)c2c1S(=O)(=O)N1CCC(C)CC1	u	x	25%
11	COc1ccc(N2CCN(C3CCCN(Cc4cccc(C(C)=O)c4)C3)CC2)cc1 (configuration not stated)	-22%	1%	11%

no.	TDP1 inh	TDP1 cell noCPT
13	-2%	10µM*
8	8%	5%
2	3%	u
11	x	-2%

More structures:
no.	SMILES	DT40 TDP1 CPT	uPA surface inh	miR-21 reporter
16	CCCC(=O)Nc1ccc(S(=O)(=O)N2CCCC2)cc1	10%	-6%	0%
17	Cc1ccc2c(CC(=O)Nc3ccc(S(=O)(=O)N4CCCC(C)C4)cc3)coc2c1 (configuration not stated)	u	x	-4%
18	Cc1cc(C)c2c(CC(=O)Nc3ccc(S(=O)(=O)N4CCCC(C)C4)cc3)coc2c1 (configuration not stated)	u	x	17%
19	Cc1ccc(C)c(CNc2ccc(S(=O)(=O)N3CCCCC3)cc2)c1	15µM*	2.5µM*	x
20	C/C(=N\NC(=O)c1cc(-c2ccco2)nc2ccccc12)c1cccnc1	u	u	16%
21	Cn1nc(C(=O)NNC(=O)Cc2ccc(S(=O)(=O)N3CCOCC3)s2)c2ccccc2c1=O	9%	3%	x
22	COc1cccc(CNc2nc3cc(-c4ccc(F)cc4)sc3c(=O)n2C)c1OC	26µM*	x	x
23	COc1cccc(CNc2nc3cc(-c4ccc(C)cc4)sc3c(=O)n2C)c1OC	16µM*	x	x
24	Cc1ccc(CNc2ccc3cc(S(=O)(=O)N4CCCCC4)ccc3n2)cc1	10µM*	x	23%
25	CC1CCN(S(=O)(=O)c2ccc3nc(N4CCN(c5ccccc5F)CC4)ccc3c2)CC1	-14%	x	1%
26	CC1CCN(S(=O)(=O)c2ccc3nc(NCc4ccc(N(C)C)cc4)ccc3c2)CC1	23µM*	x	29%
27	CCOc1ccccc1CNc1ccc2cc(S(=O)(=O)N3CCC(C)CC3)ccc2n1	u	x	5%
28	CC1CCN(S(=O)(=O)c2ccc3nc(NCc4ccc(F)cc4)ccc3c2)CC1	13µM*	x	23%
29	CCOC(=O)C1OC1c1ccccc1 (configuration not stated)	x	x	x
30	Cc1ccc(C(=O)N2C(CC(=O)Nc3ccc(Cl)cc3)C(=O)NC3CCCCC32)cc1 (configuration not stated)	16µM*	-4%	26%

no.	TDP1 inh	TDP1 cell noCPT
16	-2%	0%
17	4%	u
18	10%	23µM*
19	0%	21µM*
20	5%	u
21	x	-12%
22	x	16µM*
23	x	18µM*
24	5%	10µM*
25	-3%	u
26	11%	12µM*
27	0%	23µM*
28	-3%	13µM*
29	4%	x
30	5%	u

(next part)
no.	SMILES	DT40 TDP1 CPT	uPA surface inh	miR-21 reporter
31	Cc1cccc(NC(=O)CC2C(=O)NC3CCCCC3N2C(=O)c2ccccc2Cl)c1 (configuration not stated)	-11%	-2%	7%
32	Cc1[nH]c(=O)[nH]c(=O)c1S(=O)(=O)N1CCC(C(=O)N2CCN(c3cccc(C(F)(F)F)c3)CC2)CC1	-7%	2%	3%
33	CCC(Oc1ccc(F)cc1)C(=O)Nc1nc(-c2ccc(F)cc2)ns1 (configuration not stated)	18µM*	x	u
34	Nc1oc2ccccc2c(=O)c1-c1ccc2c(c1)OCO2	18µM*	-12%	-48%
35	CNC[C@@H]1OCc2ccccc2-c2ccccc2C(=O)N([C@H](C)CO)C[C@@H]1C	-7%	x	x
36	CCCC(C)Sc1nc2c([nH]1)c(=S)n(C)c(=O)n2C (configuration not stated)	4.6µM*	0%	x
37	Cn1c(=S)c2[nH]c(SCC3CCCO3)nc2n(C)c1=O (configuration not stated)	1.3µM*	3%	x
38	CCC(=O)Nc1nnc(S(=O)(=O)N2CCCCCC2)s1	0%	19%	-1%
39	CCCCOc1ccccc1NC(=O)CSc1nnnn1C(C)(C)C	-14%	1%	-15%
40	Cc1c(-c2ccccc2)nnn1-c1ccc(F)cc1F	-9%	-7%	-59%
41	CCCCSCCCNC(=O)c1cn(CC)c2ccc(S(=O)(=O)N(C)C3CCCCC3)cc2c1=O	u	x	13%
42	CCCN(CCC)CCCNC(=O)c1cn(CC)c2ccc(S(=O)(=O)N(C)C3CCCCC3)cc2c1=O	u	5%	0%
43	CCC1CCCCN1CCCNC(=O)c1cn(CC)c2ccc(S(=O)(=O)N(C)C3CCCCC3)cc2c1=O (configuration not stated)	u	u	9%
44	O=C(NCC1CCCO1)c1ccc2c(c1)S(=O)(=O)c1ccccc1C2=O (configuration not stated)	-15%	-10%	x
45	Cc1cc2c(N=O)c(NO)ccc2[nH]1	7.3µM*	-13%	u
46	O=Nc1c(O)[nH]c2ccc(F)cc12	2%	3%	1%
47	Oc1ccc(-c2nc(-c3ccc(F)cc3)c(-c3ccncc3)[nH]2)cc1	u	-9%	x

no.	TDP1 inh	TDP1 cell noCPT
31	x	-34%
32	3%	-1%
33	0%	10µM*
34	x	u
35	x	1%
36	x	4.6µM*
37	x	1.2µM*
38	10%	-10%
39	-1%	-18%
40	x	-19%
41	0%	16µM*
42	1%	u
43	4%	21µM*
44	x	-23%
45	7%	6.5µM*
46	-3%	-15%
47	10%[56.1 µM]	6.5µM*
